Laboratory results from patent EP2112155B1, “Hydrogensulfate salt of 2-acetoxy-5-(a-cyclopropylcarbonyl-2-fluorobenzyl)-4,5,6,7-tetrahydrothieno[3,2-c]pyridine and its preparation” (Sandoz AG, priority 2008, dated 2009).

Assay: Solubility of various Prasugrel acid addition salts, determined according to European Pharmacopoeia 6.0, 5.11 (2008)
Description: As bioavailability depends, among others, on solubility, an optimal active substance for oral application should show a high solubility in a broad pH-range. […] Table 2: Solubility of various Prasugrel acid addition salts

Measured: Solubility

hydrogensulfate salt of 2-acetoxy-5-(α-cyclopropylcarbonyl-2-fluorobenzyl)-4,5,6,7-tetrahydrothieno[3,2-c]pyridine [Prasugrel hydrogensulfate]
freely soluble: Acetate buffer pH 4.5 | Hydrochloric acid medium pH 1.2 | water
